Laboratory results reported in ChEMBL document CHEMBL4414592, “Aryl-fluorosulfate-based Lysine Covalent Pan-Inhibitors of Apoptosis Protein (IAP) Antagonists with Cellular Efficacy” (J Med Chem, 2019).

Assay: Stability in mouse plasma assessed as half life at 200 uM at 37 degC incubated up to 120 mins by mass spectrometry
Assay type: ADME, cell-free
Settings: 2 h

SMILES: CN[C@@H](C)C(=O)N[C@H](C(=O)N1CCC[C@H]1C(=O)N[C@@H]1CCc2c(OS(=O)(=O)F)cccc21)C1CCCCC1
- t1/2: > 2 h
